Protein sequences, listed by entry. Tags and fused reporters are not part of them.
UniProt P43116, whole entry: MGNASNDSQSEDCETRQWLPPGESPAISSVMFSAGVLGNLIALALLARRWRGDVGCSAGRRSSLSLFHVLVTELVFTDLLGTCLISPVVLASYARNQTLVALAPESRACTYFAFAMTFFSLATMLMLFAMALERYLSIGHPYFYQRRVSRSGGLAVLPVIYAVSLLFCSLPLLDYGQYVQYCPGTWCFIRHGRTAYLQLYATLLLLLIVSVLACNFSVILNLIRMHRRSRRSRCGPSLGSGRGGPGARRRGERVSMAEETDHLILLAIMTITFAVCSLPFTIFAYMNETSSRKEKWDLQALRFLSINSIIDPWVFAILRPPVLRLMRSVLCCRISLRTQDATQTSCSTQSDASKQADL

In patent publication US7622475B2, “EP2 agonists” (Pfizer Inc, priority 2006, dated 2009):

Columns and labels:
EP2 = EP2 (Homo sapiens, UniProt P43116); assay: EP2 cAMP EC50 (Table 1); type: cell-based; details: read-out: EP2 cAMP EC50
[1] = target: prostaglandin E2 type 2 (EP2) receptors (Homo sapiens, UniProt P43116); assay: Assay for binding to prostaglandin E2 receptors (3H-prostaglandin E2 displacement, membranes of transfected cells); details: read-out: EP2 IC50; displacement of 3H-prostaglandin E2
Description: Assay for Binding to Prostaglandin E2 Receptors
All operations are performed at 4° C. Transfected cells expressing prostaglandin E2 type 1 receptors (EP1), type 2 (EP2), type 3 (EP3) or type 4 (EP4) receptors are harvested and suspended to 2 million cells per ml in Buffer A [50 mM Tris-HCl (pH 7.4), 10 mM MgCl2, 1 mM EDTA, 1 mM Pefabloc peptide, (Sigma, St. Louis, Mo.), 10 uM Phosporamidon peptide, (Sigma, St. Louis, Mo.), 1 uM Pepstatin A peptide, (Sigma, St. Louis, Mo.), 10 uM Elastatinal peptide, (Sigma, St. Louis, Mo.), 100 uM Antipain peptide, (Sigma, St. Louis, Mo.)]. […] Pelleted membranes are resuspended to 3-10 mg protein per ml, protein concentration being determined according to the method of Bradford [Bradford, M., Anal. Biochem., 72, 248 (1976)]. […]
Frozen membranes as prepared are thawed and diluted to 1 mg protein per ml in Buffer A. One volume of membrane preparation is combined with 0.05 volume test compound or buffer and one volume of 3 nM 3H-prostaglandin E2 (#TRK 431, Amersham, Arlington Heights, Ill.) in Buffer A. The mixture (205 μL total volume) is incubated for 1 hour at 25° C. […] To determine the amount of 3H-prostaglandin bound to the membranes, the dried filters are placed into plastic bags with scintillation fluid and counted in a LKB 1205 Betaplate reader (Wallac, Gaithersburg, Md.). […]

- EC50 (EP2): 18 nM
- IC50 [1]: 5.3 nM
Structure (SMILES): CC(C)(C)OC(=O)c1csc(CCCN(CCOc2cc(Cl)cc(Cl)c2)S(C)(=O)=O)n1
